In US10092517B2, “Gelated microparticle suitable for oral delivery of therapeutic peptides to the lower intestine” (Insucaps Limited, priority 2015, dated 2018):

System: Caco-2 cells
Assay: Transport permeability of BD, free and encapsulated, through Caco-2 cells
Type: in vitro ADME
Settings: transport of BD relative to free BD

Which R does the source give for Blue Dextran [Free BD] here?
The R was 1.001.
